Measured values as given in patent US20040058357A1, “System and method for assaying drugs” (priority 2003, published 2004).

Legend:
AChE [1] = assay: Sucrose gradient sedimentation of cortical AChE (G1/G4 ratio); type: in vivo; conditions: rat cortex
AChE [2] = assay: AChE hydrolytic activity in cortex and hippocampus of treated rats; type: in vivo, rat; conditions: n = 3-4; for Cortex AChE activity: rat cortex; for Hippocampus AChE activity: rat hippocampus
AChE-R mRNA = assay: Fluorescent in situ hybridization of AChE-R mRNA in rat brain; type: in vivo; conditions: rat cortex, CA1, CA3; compared to PG/S alone or DFP

SMILES: CCCCCCCC[n+]1cccc(OC(=O)N(C)C)c1.[Br-]
- G1/G4 levels of cortical AChE (AChE [1]): reduced
- Cortex AChE activity (AChE [2]; 3 hr post-treatment): 65 ± 17 nmol/min/mg
- Cortex AChE activity (AChE [2]; 24 hr post-treatment): 71 ± 14 nmol/min/mg
- Hippocampus AChE activity (AChE [2]; 3 hr post-treatment): 87 ± 3.8 nmol/min/mg
- Hippocampus AChE activity (AChE [2]; 24 hr post-treatment): 96 ± 3.5 nmol/min/mg
- R:S ratio of AChE mRNA labeling (AChE-R mRNA): lowered the R:S ratio
